Tests used:
[1] = Extraction of isobutanol from an aqueous solution by ionic liquid (HPLC); assay type: physicochemical; settings: isobutanol in aqueous solution after mixing 3 mL of about 31 g/L isobutanol with 150 microliters (5 vol %) ionic liquid, overnight equilibration; control 436
Method: (§1) The extraction of ethanol and isobutanol from an aqueous solution by the ionic liquids used in Examples 1˜8 was evaluated. 3 mL of an aqueous solution containing about 31 g/L of ethanol or isobutanol was mixed with 150 microliters (5 vol %) of the indicated ionic liquid in an airtight vial with minimal headspace. Ethanol and isobutanol concentration in the solution was measured using HPLC as described above following thorough mixing and overnight equilibration of the contents of the vial.
(§2) The amount of alcohol extracted to the ionic liquid phase was calculated as a percentage of the amount of alcohol remaining in the solution in the control, which had no ionic liquid phase but was processed experimentally under the same conditions. In some cases, about 3˜13% of isobutanol was extracted even though only 5% (V/V) of ionic liquid was used as the second phase.

[2] = Extraction of ethanol from an aqueous solution by ionic liquid (HPLC); assay type: physicochemical; settings: ethanol in aqueous solution after mixing 3 mL of about 31 g/L ethanol with 150 microliters (5 vol %) ionic liquid, overnight equilibration; control 655
Method: as §1, §2

Substance: 1-Ethyl-3-methylimidazolium levulinate [Example 1]
- mM isobutanol [1]: 415 mM
- mM Ethanol [2]: 628 mM
